Data reported in ChEMBL document CHEMBL1151466, “Pharmacokinetics and efficacy of piperaquine and chloroquine in Melanesian children with uncomplicated malaria” (Antimicrob Agents Chemother, 2008).

System: Homo sapiens
Experiment: Apparent clearance with respect to bioavailability in Paua New Guinean children with uncomplicated malaria at 10 mg/kg daily for 3 days
Type: ADME, organism-based
Settings: in vivo, 72 h

- CL/F: 0.8 L/h/kg
Compound: CCN(CC)CCCC(C)Nc1ccnc2cc(Cl)ccc12 (stereo unspecified) [CHLOROQUINE]
